Results published in patent US10087225B2, “Formulation of MK2 inhibitor peptides” (MOERAE MATRIX, INC., priority 2015, dated 2018).

Amino acid sequences for entries named in this document (tags omitted). A change or cut given only in a name is not applied to a line headed by its entry. Residues count along the entry.
UniProt Q9NQU5: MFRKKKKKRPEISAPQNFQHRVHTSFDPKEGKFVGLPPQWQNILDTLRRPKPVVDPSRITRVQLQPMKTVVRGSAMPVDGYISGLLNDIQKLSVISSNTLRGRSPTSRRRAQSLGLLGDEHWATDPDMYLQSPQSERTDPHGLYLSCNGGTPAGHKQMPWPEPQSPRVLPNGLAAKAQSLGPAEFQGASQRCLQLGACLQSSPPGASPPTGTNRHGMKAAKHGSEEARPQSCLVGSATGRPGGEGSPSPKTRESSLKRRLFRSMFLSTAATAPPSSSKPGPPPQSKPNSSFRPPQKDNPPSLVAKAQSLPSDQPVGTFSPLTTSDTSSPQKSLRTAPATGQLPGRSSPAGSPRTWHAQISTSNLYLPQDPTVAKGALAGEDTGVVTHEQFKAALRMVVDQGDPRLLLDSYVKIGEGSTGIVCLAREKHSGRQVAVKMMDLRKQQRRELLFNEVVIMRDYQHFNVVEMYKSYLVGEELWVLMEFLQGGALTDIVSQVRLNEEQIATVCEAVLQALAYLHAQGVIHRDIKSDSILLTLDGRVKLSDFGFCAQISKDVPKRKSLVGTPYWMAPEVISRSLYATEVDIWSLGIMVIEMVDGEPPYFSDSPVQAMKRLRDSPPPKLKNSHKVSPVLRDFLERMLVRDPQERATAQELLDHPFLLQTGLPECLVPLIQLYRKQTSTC
UniProt P78368: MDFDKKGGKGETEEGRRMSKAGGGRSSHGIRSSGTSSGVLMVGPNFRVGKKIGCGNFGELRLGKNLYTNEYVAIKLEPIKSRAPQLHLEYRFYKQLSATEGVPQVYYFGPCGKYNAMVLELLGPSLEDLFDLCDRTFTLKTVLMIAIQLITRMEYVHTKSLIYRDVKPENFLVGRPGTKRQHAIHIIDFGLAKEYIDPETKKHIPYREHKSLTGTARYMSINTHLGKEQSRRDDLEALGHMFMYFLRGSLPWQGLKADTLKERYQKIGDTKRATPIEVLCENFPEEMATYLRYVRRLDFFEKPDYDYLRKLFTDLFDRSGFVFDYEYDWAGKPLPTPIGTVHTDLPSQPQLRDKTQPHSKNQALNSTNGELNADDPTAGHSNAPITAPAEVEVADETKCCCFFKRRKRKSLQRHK
UniProt Q9Y6M4: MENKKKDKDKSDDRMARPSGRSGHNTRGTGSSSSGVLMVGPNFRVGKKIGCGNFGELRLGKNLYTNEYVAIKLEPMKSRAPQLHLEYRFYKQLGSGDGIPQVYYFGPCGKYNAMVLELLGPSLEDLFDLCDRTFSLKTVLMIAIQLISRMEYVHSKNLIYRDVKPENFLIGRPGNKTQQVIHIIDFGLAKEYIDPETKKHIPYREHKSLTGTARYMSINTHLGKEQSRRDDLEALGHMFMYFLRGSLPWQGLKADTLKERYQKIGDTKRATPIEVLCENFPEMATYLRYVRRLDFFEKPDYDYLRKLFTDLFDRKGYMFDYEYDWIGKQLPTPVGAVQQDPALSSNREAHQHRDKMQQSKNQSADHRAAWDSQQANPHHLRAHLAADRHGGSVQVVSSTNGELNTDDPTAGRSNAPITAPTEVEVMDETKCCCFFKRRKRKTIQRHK
UniProt P45983, 1-384 isoform P45983-2: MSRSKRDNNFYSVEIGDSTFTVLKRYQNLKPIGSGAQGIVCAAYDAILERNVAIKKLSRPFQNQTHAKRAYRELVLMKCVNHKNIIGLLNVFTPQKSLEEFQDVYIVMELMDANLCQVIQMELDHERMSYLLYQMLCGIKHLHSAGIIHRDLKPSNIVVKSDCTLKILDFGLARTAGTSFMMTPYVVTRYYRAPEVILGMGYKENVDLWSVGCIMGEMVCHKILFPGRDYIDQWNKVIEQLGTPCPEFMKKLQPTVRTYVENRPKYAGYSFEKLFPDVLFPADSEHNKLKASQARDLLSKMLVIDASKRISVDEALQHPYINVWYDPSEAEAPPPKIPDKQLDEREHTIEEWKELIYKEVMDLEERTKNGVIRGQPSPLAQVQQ
UniProt P11362, 22-822 V561M: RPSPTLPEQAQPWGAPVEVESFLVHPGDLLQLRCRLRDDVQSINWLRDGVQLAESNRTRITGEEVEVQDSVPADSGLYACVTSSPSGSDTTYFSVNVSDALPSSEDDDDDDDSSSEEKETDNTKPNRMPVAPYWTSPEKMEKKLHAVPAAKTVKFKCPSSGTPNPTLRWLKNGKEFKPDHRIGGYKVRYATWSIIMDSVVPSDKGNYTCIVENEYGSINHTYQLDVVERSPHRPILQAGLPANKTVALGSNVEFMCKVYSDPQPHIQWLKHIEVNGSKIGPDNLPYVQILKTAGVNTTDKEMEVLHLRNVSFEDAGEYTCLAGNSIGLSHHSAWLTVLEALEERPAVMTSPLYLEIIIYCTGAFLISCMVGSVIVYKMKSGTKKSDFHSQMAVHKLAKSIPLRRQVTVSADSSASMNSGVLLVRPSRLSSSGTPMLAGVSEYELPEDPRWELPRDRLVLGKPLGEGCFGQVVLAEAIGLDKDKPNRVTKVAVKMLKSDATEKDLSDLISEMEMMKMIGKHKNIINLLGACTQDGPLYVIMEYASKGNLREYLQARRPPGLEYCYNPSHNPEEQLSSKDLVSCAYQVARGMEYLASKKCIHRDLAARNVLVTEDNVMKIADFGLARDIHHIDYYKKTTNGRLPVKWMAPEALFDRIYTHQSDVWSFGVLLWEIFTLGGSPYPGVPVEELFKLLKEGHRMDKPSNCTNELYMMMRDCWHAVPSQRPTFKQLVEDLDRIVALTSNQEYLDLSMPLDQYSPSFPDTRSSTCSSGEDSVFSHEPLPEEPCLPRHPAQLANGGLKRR
UniProt Q9HCP0: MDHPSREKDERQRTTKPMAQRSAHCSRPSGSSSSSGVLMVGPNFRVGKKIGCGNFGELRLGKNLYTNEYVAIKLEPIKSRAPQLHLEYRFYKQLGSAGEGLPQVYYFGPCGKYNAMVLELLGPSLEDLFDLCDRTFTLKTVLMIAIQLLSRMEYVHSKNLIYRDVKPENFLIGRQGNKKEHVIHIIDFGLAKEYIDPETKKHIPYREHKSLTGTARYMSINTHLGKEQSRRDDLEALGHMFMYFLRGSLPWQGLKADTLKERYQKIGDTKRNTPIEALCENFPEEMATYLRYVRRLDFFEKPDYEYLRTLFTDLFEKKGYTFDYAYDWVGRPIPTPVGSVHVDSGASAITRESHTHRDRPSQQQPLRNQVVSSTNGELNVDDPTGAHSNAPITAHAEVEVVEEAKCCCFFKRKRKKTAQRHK

Columns and labels:
Experiment in all cases: Kinase Profiling Assay
Format in all cases: biochemical
Conditions in all cases: 100 μM
[1] = molecular target: T1, MKK7β(h) (Homo sapiens, UniProt O14733)
T1 sequence (O14733 1-419): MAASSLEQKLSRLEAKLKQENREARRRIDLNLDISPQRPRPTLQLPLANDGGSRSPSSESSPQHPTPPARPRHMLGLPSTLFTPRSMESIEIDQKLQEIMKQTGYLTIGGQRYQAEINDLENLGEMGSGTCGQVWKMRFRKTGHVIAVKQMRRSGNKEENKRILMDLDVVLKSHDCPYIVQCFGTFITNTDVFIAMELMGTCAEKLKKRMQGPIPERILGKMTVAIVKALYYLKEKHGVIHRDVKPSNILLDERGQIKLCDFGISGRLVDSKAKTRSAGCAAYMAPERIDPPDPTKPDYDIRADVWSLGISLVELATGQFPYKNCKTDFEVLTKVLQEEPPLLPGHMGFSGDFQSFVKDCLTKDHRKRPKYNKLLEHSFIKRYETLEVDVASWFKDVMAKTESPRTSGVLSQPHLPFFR

[2] = molecular target: IGF-1R(h) (Homo sapiens, UniProt P08069)
[3] = molecular target: PAK6(h) (Homo sapiens, UniProt Q9NQU5)
[4] = molecular target: Fgr(h) (Homo sapiens, UniProt P09769)
[5] = molecular target: CK1γ2(h) (Homo sapiens, UniProt P78368)
[6] = molecular target: CK1γ3(h) (Homo sapiens, UniProt Q9Y6M4)
[7] = molecular target: CK2α2(h) (Homo sapiens, UniProt P19784)
[8] = molecular target: Plk1(h) (Homo sapiens, UniProt P53350)
[9] = molecular target: JNK1α1(h) (Homo sapiens, UniProt P45983)
[10] = molecular target: FGFR1(V561M)(h) (Homo sapiens, UniProt P11362, V561M)
[11] = molecular target: FGFR2(N549H)(h) (Homo sapiens, UniProt P21802, N549H)
[12] = molecular target: GRK5(h) (Homo sapiens, UniProt P34947)
[13] = molecular target: CK1γ1(h) (Homo sapiens, UniProt Q9HCP0)

## HRRIKAWLKKIKALARQLGVAA (Mammalian) [MMI-0500]
[1]
  % activity: 102%
[2]
  % activity: 117%
[3]
  % activity: 107%
[4]
  % activity: 109%
[5]
  % activity: 119%
[6]
  % activity: 114%
[7]
  % activity: 103%
[8]
  % activity: 104%
[9]
  % activity: 109%
[10]
  % activity: 113%
[11]
  % activity: 105%
[12]
  % activity: 116%
[13]
  % activity: 109%
